From US12053441B2, “Formulations for improving the delivery of hydrophobic agents” (THE ROYAL INSTITUTION FOR THE ADVANCEMENT OF LEARNING / …, priority 2018, dated 2024)

Tested on: UQ-deficient cells (Mclk1 KO or DKO cells)
Assay: Screening for compounds that increase survival or respiration of UQ-deficient cells

C[C@@H]1C[C@H]2[C@@H]3C[C@H](F)C4=CC(=O)C=C[C@]4(C)[C@@]3(F)[C@@H](O)C[C@]2(C)[C@@]1(O)C(=O)CO [flumethasone]
identified by the screening methods as useful for UQ deficiency: identified
